According to US20040053206A1 (DYAX, published 2004):
pKi: −log10 of the molar value.

What was measured:
Assay in all cases: protease inhibition, apparent Ki (Ki,app)
[1] = molecular target: human pancreatic chymotrypsin (human) (UniProt P17538)
[2] = molecular target: human plasma kallikrein (human) (UniProt P03952)
[3] = molecular target: porcine pancreatic kallikrein (porcine) (UniProt P00752)
[4] = molecular target: human C1r, activated (human) (UniProt P00736)
[5] = molecular target: human neutrophil elastase (human) (UniProt P08246)
[6] = molecular target: human plasmin (human) (UniProt P00747)

| Substance | pKi [1] | pKi [2] | pKi [3] | pKi [4] | pKi [5] | pKi [6] |
| --- | --- | --- | --- | --- | --- | --- |
| aprotinin (from UniProt P00974 36-93) | 6.14 | 7.52 | 9.26 |  |  |  |
| aprotinin (from UniProt P00974 36-93) (other; other documents disagree on this pair) |  |  |  | 5.00 | 5.77 | 9.05 |
